Test results: ChEMBL document CHEMBL4402550, “Potent, Efficacious, and Stable Cyclic Opioid Peptides with Long Lasting Antinociceptive Effect after Peripheral Administration” (2020)

Chains of the proteins cited; added tags and fusions are not shown. Lines headed by an entry give the natural chain unless they say otherwise; changes in a name come on top.
UniProt P35372, whole entry, looked up: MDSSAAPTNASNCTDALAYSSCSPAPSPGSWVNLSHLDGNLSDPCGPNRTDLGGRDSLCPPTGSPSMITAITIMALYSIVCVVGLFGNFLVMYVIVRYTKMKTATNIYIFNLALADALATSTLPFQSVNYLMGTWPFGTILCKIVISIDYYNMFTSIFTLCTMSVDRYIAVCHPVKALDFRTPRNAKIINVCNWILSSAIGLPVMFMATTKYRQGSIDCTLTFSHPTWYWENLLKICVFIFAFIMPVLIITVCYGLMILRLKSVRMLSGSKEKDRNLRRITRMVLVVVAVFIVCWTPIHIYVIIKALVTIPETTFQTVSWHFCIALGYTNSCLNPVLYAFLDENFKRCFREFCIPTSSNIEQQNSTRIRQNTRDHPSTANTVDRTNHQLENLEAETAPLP
UniProt P41143, whole entry, looked up: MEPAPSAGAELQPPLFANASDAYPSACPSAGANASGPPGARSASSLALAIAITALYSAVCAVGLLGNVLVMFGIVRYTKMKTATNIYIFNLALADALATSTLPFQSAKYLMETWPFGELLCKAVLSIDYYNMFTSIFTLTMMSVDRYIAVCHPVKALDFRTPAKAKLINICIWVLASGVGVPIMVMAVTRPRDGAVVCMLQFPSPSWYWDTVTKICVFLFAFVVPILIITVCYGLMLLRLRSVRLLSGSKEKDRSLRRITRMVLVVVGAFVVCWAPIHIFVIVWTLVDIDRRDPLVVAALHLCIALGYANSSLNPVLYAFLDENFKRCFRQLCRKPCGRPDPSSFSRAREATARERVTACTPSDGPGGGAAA
UniProt P41145: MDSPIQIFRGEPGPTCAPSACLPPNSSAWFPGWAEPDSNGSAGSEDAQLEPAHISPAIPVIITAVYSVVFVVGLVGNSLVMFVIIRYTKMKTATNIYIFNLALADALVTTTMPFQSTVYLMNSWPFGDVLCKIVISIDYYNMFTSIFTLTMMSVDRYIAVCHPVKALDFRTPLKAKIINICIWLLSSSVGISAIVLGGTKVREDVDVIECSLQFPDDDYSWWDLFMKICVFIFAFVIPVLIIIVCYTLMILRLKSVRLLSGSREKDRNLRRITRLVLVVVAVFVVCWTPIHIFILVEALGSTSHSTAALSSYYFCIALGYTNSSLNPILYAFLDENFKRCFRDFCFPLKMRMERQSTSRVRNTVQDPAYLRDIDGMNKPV

Key:
[1] = target: T1, Mu-type opioid receptor (Homo sapiens, UniProt P35372); test: Displacement of [3H]-diprenorphine from human MOR expressed in CHO cell membranes incubated for 1 hr by scintillation counting method
[2] = target: T2, Delta-type opioid receptor (Homo sapiens, UniProt P41143); test: Displacement of [3H]-diprenorphine from human DOR expressed in CHO cell membranes incubated for 1 hr by scintillation counting method
[3] = target: T3, Kappa-type opioid receptor (Homo sapiens, UniProt P41145); test: Displacement of [3H]-diprenorphine from human KOR expressed in CHO cell membranes incubated for 1 hr by scintillation counting method
[4] = target: T1, Mu-type opioid receptor; test: Agonist activity at human MOR expressed in CHO cell membranes incubated for 1 hr by [35S]-GTPgammaS coupling assay
[5] = target: T2, Delta-type opioid receptor; test: Agonist activity at human DOR expressed in CHO cell membranes incubated for 1 hr by [35S]-GTPgammaS coupling assay
[6] = target: T2, Delta-type opioid receptor; test: Antagonist activity at human DOR expressed in CHO cell membranes assessed as reduction in SNC80-induced response incubated for 1 hr by [35S]-GTPgammaS coupling assay
[7] = target: T3, Kappa-type opioid receptor; test: Agonist activity at human KOR expressed in CHO cell membranes incubated for 1 hr by [35S]-GTPgammaS coupling assay
[8] = Permeability at 200 uM incubated for 4 hrs by PAMPA method
[9] = Permeability assessed as mean mass balance at 200 uM incubated for 4 hrs by PAMPA method
[10] = Stability in human plasma assessed as elimination rate at 5 uM at 37 degC measured up to 250 mins by LC-MS analysis
[11] = Stability in human plasma assessed as half life at 5 uM at 37 degC measured up to 250 mins by LC-MS analysis
[12] = Cmax in CD1 mouse at 2.1 mg/kg, sc measured over 2 hrs by LC/MS/MS analysis; conditions: in vivo
[13] = Total drug level in CD1 mouse plasma at 2.1 mg/kg, sc measured over 2 hrs by LC/MS/MS analysis; conditions: read-out: Cp, in vivo, strain CD1, Plasma
[14] = Stability in human plasma assessed as parent compound remaining level at 5 uM at 37 degC measured at 240 mins by LC-MS analysis; conditions: 4 h
[15] = system: Mus musculus; test: Antinociceptive activity in 2.1 umol/kg, ip opioid antagonist naloxone methiodide pre-treated CD1 mouse assessed as reduction in thermal nociception at 1.5 umol/kg, iv dosed 15 mins before test and measured after 15 to 120 mins post compound dose by hot plate test relative to control
[16] = Tmax in CD1 mouse at 2.1 mg/kg, sc measured over 2 hrs by LC/MS/MS analysis; conditions: in vivo
[17] = Half life in CD1 mouse at 2.1 mg/kg, sc measured over 2 hrs by LC/MS/MS analysis; conditions: in vivo
[18] = AUC (infinity) in CD1 mouse at 2.1 mg/kg, sc measured over 2 hrs by LC/MS/MS analysis; conditions: in vivo
[19] = Unbound fraction in CD1 mouse plasma at 2.1 mg/kg, sc measured over 2 hrs by LC/MS/MS analysis; conditions: in vivo, strain CD1, Plasma
[20] = Total drug level in CD1 mouse brain at 2.1 mg/kg, sc measured over 2 hrs by LC/MS/MS analysis; conditions: in vivo, strain CD1, Brain

Row | SMILES | Ki [1] | Ki [2] | Ki [3] | EC50 [4] | EC50 [5] | EC50 [7] | Peff [8] | Activity [9] | Kel [10] | t1/2 [11] | other results
1 | N[C@@H](Cc1ccc(O)cc1)C(=O)N[C@@H]1CSCc2ccccc2CSC[C@@H](NC(=O)[C@@H](N)Cc2ccc(O)cc2)C(=O)NCC(=O)N[C@@H](Cc2ccc(F)cc2)C(=O)NNC(=O)[C@H](Cc2ccc(F)cc2)NC(=O)CNC1=O | 15.9 nM | 4.94 nM | 293 nM | 7.5 nM | 142 nM | 806 nM |  |  |  |  | IC50 [6]: 8.9 nM
2 | Cc1cc(O)cc(C)c1C[C@H](N)C(=O)N[C@@H]1CCCCNC(=O)C[C@@H](C(N)=O)NC(=O)[C@@H](Cc2ccccc2)CC(=O)[C@H](Cc2ccc(C(F)(F)F)cc2)NC1=O |  |  |  |  |  |  | < 0.58 ×10⁻⁶ cm/s | 95.8% |  |  | 
3 | CC1CC(OC(=O)C(O)c2ccccc2)CC(C)(C)N1C (centres undefined) |  |  |  |  |  |  |  |  | 0.000147 s⁻¹ | 1.31 h | 
4 | Cc1cc(O)cc(C)c1C[C@H](N)C(=O)N[C@@H]1CSCc2ccccc2CSC[C@@H](NC(=O)[C@@H](N)Cc2c(C)cc(O)cc2C)C(=O)NCC(=O)N[C@@H](Cc2ccc(F)cc2)C(=O)NNC(=O)[C@H](Cc2ccc(F)cc2)NC(=O)CNC1=O | 13.8 nM | 8.2 nM | 76.7 nM | < 0.51 nM | 8.1 nM | 46.7 nM |  |  |  |  | Cmax [12]: 548 nM; concentration [13]: 10 nM
5 | C[C@@H](NCC(=O)N[C@@H](Cc1ccc(F)cc1)C(=O)N1CCN(C(=O)[C@H](Cc2ccc(F)cc2)NC(=O)CNC(=O)[C@@H](C)NC(=O)[C@@H](N)Cc2ccc(O)cc2)CC1)C(=O)N[C@@H](Cc1ccc(O)cc1)C(N)=O |  |  |  |  |  |  | 0.693 ×10⁻⁶ cm/s | 98.4% | 3.33e-06 s⁻¹ | > 4 h | Stability [14]: 96.1%
6 | Cn1c(=O)c2[nH]cnc2n(C)c1=O.O |  |  |  |  |  |  |  | 94.5% |  |  | 
7 | N[C@@H](Cc1ccc(O)cc1)C(=O)N[C@@H]1CSSC[C@@H](NC(=O)[C@@H](N)Cc2ccc(O)cc2)C(=O)NCC(=O)N[C@@H](Cc2ccc(F)cc2)C(=O)N2CCN(CC2)C(=O)[C@H](Cc2ccc(F)cc2)NC(=O)CNC1=O | 83.7 nM | 31.4 nM | 138 nM | 6.2 nM | 4 nM | 9.7 nM |  |  |  |  | IC50 [6]: 404 nM
8 | N[C@@H](Cc1ccc(O)cc1)C(=O)N[C@@H]1CSCc2ccccc2CSC[C@@H](NC(=O)[C@@H](N)Cc2ccc(O)cc2)C(=O)NCC(=O)N[C@@H](Cc2ccc(F)cc2)C(=O)N2CCN(CC2)C(=O)[C@H](Cc2ccc(F)cc2)NC(=O)CNC1=O.O=C(O)C(F)(F)F.O=C(O)C(F)(F)F |  |  |  |  |  |  |  |  |  |  | MPE [15]: < 25%
9 | N[C@@H](Cc1ccc(O)cc1)C(=O)N[C@@H]1CSCc2ccccc2CSC[C@@H](NC(=O)[C@@H](N)Cc2ccc(O)cc2)C(=O)NCC(=O)N[C@@H](Cc2ccc(F)cc2)C(=O)N2CCN(CC2)C(=O)[C@H](Cc2ccc(F)cc2)NC(=O)CNC1=O | 22.8 nM | 7.88 nM | 121 nM | 3.4 nM | 4.3 nM | 25.9 nM |  |  |  |  | 
10 | N[C@@H](Cc1ccc(O)cc1)C(=O)N[C@@H]1CSCc2ccccc2CSC[C@@H](NC(=O)[C@@H](N)Cc2ccc(O)cc2)C(=O)NCC(=O)N[C@@H](Cc2ccc(F)cc2)C(=O)NNC(=O)[C@H](Cc2ccc(F)cc2)NC(=O)CNC1=O.O=C(O)C(F)(F)F.O=C(O)C(F)(F)F |  |  |  |  |  |  | 2.16 ×10⁻⁶ cm/s | 103% | 6.67e-06 s⁻¹ | > 4 h | Stability [14]: 91.7%
11 | Cc1cc(O)cc(C)c1C[C@H](N)C(=O)N[C@@H]1CSCc2ccccc2CSC[C@@H](NC(=O)[C@@H](N)Cc2c(C)cc(O)cc2C)C(=O)NCC(=O)N[C@@H](Cc2ccc(F)cc2)C(=O)NNC(=O)[C@H](Cc2ccc(F)cc2)NC(=O)CNC1=O.O=C(O)C(F)(F)F.O=C(O)C(F)(F)F |  |  |  |  |  |  | < 0.587 ×10⁻⁶ cm/s | 97.4% | 8.33e-06 s⁻¹ | > 4 h | Stability [14]: 88.1%; Tmax [16]: 4.98 min; t1/2 [17]: 0.513 h; AUC [18]: 0.433 µM·h; Fu [19]: 0.98; Drug uptake [20]: 5 ng/g
